Data from patent publication US5637318A, “Dermatological agent for assisting the transport of oxygen in the skin” (Lancaster Group AG, priority 1992, dated 1997).

Test system: skin tissue
Settings: in vivo

`FC(F)(F)C(F)(F)C(F)(F)C(F)(F)C(F)(F)C(F)(F)F` [F-hexane] was tested, and the “residence time in the tissue / release from the tissue” value was “released correspondingly more rapidly from the tissue”.
